The values below are quoted from earlier work in publication PMC8307404, “Crystal Structure-Guided Design of Bisubstrate Inhibitors and Photoluminescent Probes for Protein Kinases of the PIM Family” (Molecules, 2021).

Chains of the proteins cited; added tags and fusions are not shown.
UniProt P11309, whole entry: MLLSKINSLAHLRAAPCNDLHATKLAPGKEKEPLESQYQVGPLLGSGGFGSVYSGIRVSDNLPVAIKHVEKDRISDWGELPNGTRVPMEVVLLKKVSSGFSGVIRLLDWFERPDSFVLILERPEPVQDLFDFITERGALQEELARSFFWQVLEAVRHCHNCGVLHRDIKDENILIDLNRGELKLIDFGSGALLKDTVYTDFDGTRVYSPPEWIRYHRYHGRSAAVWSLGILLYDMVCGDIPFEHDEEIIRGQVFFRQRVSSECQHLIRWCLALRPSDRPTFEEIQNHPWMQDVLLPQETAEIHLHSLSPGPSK

The target in this data set is Pimtide.

For the substance PIM-1 (from UniProt P11309), the Kd is 58 nM.
